The target in this assay is Tie1-EpoR chimeric receptor on Ba/F3 cells (extracellular domain of human Tie1 fused with the transmembrane and cytoplasmic domains of the mouse erythropoietin receptor) (human; mouse) (UniProt P14753). Kind of assay: cell-based or functional assay.

The chains behind the UniProt entries cited, without tags or fusion partners. Where a name states a change or a piece, a line headed by the entry shows the natural chain unless it says otherwise.
UniProt P14753: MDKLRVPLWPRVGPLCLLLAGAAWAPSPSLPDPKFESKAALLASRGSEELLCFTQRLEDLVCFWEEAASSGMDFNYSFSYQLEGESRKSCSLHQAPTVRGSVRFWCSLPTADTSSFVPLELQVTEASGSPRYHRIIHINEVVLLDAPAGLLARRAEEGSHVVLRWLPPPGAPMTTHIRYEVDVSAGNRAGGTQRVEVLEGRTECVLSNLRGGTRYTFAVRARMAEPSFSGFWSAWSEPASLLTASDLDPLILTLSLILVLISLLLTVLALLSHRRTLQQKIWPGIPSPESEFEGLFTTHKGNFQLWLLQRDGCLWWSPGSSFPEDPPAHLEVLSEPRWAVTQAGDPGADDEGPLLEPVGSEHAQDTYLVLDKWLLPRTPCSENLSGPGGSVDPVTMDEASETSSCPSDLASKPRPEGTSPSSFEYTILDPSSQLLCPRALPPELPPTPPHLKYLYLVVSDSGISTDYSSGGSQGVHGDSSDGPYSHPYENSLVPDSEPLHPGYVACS

Consider P-A1 IgG1 (isolate p-A1) (antibody), for which the Average MTT activity in BaF3 cell assay, treatment E3 + PA1 came to 0.6.

For P-A10 IgG1 (isolate p-A10) (antibody), the Average MTT activity in BaF3 cell assay, treatment E3 + PA10 was 0.65.

(Values after US20110059105A1.)
